The values that follow come from ChEMBL document CHEMBL1125782, “Structure/activity studies related to 2-(3,4-dichlorophenyl)-N-methyl-N-[2-(1-pyrrolidinyl)-1-substituted- ethyl]acetamides: a novel series of potent and selective kappa-opioid agonists” (1991).

The chains behind the UniProt entries cited, without tags or fusion partners.
UniProt P33534, whole entry: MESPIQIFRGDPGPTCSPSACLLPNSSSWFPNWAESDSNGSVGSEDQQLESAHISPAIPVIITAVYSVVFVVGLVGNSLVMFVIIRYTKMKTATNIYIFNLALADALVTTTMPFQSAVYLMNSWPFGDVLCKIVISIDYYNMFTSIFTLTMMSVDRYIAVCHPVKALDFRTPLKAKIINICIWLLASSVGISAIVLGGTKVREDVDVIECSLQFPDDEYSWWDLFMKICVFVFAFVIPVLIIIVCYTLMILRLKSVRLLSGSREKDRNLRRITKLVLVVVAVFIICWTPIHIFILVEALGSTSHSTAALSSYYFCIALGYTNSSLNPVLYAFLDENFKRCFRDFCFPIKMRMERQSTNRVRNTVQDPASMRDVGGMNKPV

For assay [1], the target named is Kappa-type opioid receptor (Mus musculus) (UniProt P33534). Nature of the assay: Molar potency ratio relative to the standard agonist EKC assayed in mouse vas deferens.
Assay [2] has the same target. Nature of the assay: In vitro efficacy against naloxone, in mouse vas deferens, activity expressed as Ke values.
The target is the same in assay [3]. Nature of the assay: In vitro efficacy in field stimulated mouse vas deferens assay expressed as Ke for naloxone versus compound.
For assay [4] the target is unchanged. Nature of the assay: Agonistic activity on field stimulated mouse vas deferens preparation expressed as molar potency ratio relative to standard agonist EKC.

Turning to `CN(C(=O)Cc1ccc(Cl)c(Cl)c1)[C@H](CN1CCCC1)c1ccccc1`, the Potency ratio in assay [1] turned out to be 16.1. The same compound showed a Ke in assay [2] of 17.8 nM.
`CSc1ccc(C(CN2CCCC2)N(C)C(=O)Cc2ccc(Cl)c(Cl)c2)cc1` (stereo unspecified): in assay [3], the Ke was found to be 13.8 nM. Also, the Potency ratio in assay [4] came out at 0.48.
With `C[C@@H](CN1CCCC1)N(C)C(=O)Cc1ccc(Cl)c(Cl)c1`, in assay [1], the Potency ratio stood at 0.14. In assay [2], this compound came in with a Ke of 18.5 nM.
Regarding `CC(C)C[C@@H](CN1CCCC1)N(C)C(=O)Cc1ccc(Cl)c(Cl)c1`, the Potency ratio in assay [1] was found to be 3.2.
As for `CN(C(=O)Cc1ccc(Cl)c(Cl)c1)C(CN1CCCC1)c1ccccc1O` (stereo unspecified), in assay [4], the Potency ratio was found to be 0.4.
Regarding `COc1ccccc1C(CN1CCCC1)N(C)C(=O)Cc1ccc(Cl)c(Cl)c1` (stereo unspecified), in assay [3], the Ke turned out to be 11.6 nM. Besides, the Potency ratio in assay [4] came out at 7.5.
As for `CN(C(=O)Cc1ccc(Cl)c(Cl)c1)C(CN1CCCC1)c1cccc(C#N)c1` (stereo unspecified), in assay [4], the Potency ratio was 0.53.
In turn, `COc1ccc(C(CN2CCCC2)N(C)C(=O)Cc2ccc(Cl)c(Cl)c2)c(OC)c1` (stereo unspecified) gave a Ke in assay [3] of 21.4 nM. Moreover, the Potency ratio in assay [4] stood at 1.8.
`CN(C(=O)Cc1ccc(Cl)c(Cl)c1)[C@H](CN1CC=CC1)c1ccccc1`: the Ke in assay [3] turned out to be 26.1 nM. Further, the Potency ratio in assay [4] is 40.9.
With `CN(C(=O)Cc1ccc(Cl)c(Cl)c1)C(CN1CCCC1)c1ccc(O)cc1` (stereo unspecified), in assay [3], the Ke was determined as 52.7 nM. The Potency ratio in assay [4] is 11.
With `CC[C@@H](CN1CCCC1)N(C)C(=O)Cc1ccc(Cl)c(Cl)c1`, the Potency ratio in assay [1] worked out at 0.14. In assay [2], the Ke came to 19.9 nM.
As to `CNc1cccc(C(CN2CCCC2)N(C)C(=O)Cc2ccc(Cl)c(Cl)c2)c1` (stereo unspecified), the Ke in assay [3] was 16.8 nM. Also, the Potency ratio in assay [4] was found to be 7.7.
`COc1ccc(C(CN2CCCC2)N(C)C(=O)Cc2ccc(Cl)c(Cl)c2)cc1OC` (stereo unspecified) displayed a Ke in assay [3] of 16 nM. In addition, the Potency ratio in assay [4] was found to be 21.3.
Regarding `CCC[C@@H](CN1CCCC1)N(C)C(=O)Cc1ccc(Cl)c(Cl)c1`, in assay [1], the Potency ratio stood at 0.9. The Ke in assay [2] worked out at 16.1 nM.
As to `CN(C(=O)Cc1ccc(Cl)c(Cl)c1)C(CN1CCCC1)c1ccccc1` (stereo unspecified), in assay [1], the Potency ratio stood at 5.2. Also, the Ke in assay [2] is 3.4 nM.
`COc1cccc(C(CN2CCCC2)N(C)C(=O)Cc2ccc(Cl)c(Cl)c2)c1` (stereo unspecified) yielded a Ke in assay [3] of 18.5 nM. For the same compound, the Potency ratio in assay [4] was found to be 2.45.
Turning to `COc1ccc(C(CN2CCCC2)N(C)C(=O)Cc2ccc(Cl)c(Cl)c2)cc1` (stereo unspecified), in assay [3], the Ke is 12.9 nM. For the same compound, in assay [4], the Potency ratio is 2.9.
`CC(C)[C@@H](CN1CCCC1)N(C)C(=O)Cc1ccc(Cl)c(Cl)c1`: the Potency ratio in assay [1] came to 4.3. This compound gave a Ke in assay [2] of 14.9 nM.
The like results for `CC(C)[C@@H](CN1CCCCC1)N(C)C(=O)Cc1ccc(Cl)c(Cl)c1` were, in that order, 1.45 and 24.4 nM.
As to `CN(C(=O)Cc1ccc(Cl)c(Cl)c1)C(CN1CCCC1)c1cccc(Cl)c1` (stereo unspecified), in assay [1], the Potency ratio was found to be 4.65. The Ke in assay [2] came out at 5.7 nM.
`CN(C(=O)Cc1ccc(Cl)c(Cl)c1)C(CN1CCCC1)c1cccc(O)c1` (stereo unspecified): the Potency ratio in assay [4] is 6.5.
Regarding `CCC(C)[C@@H](CN1CCCC1)N(C)C(=O)Cc1ccc(Cl)c(Cl)c1` (stereo partly specified), the Potency ratio in assay [1] came to 8.5. For the same compound, the Ke in assay [2] is 22.2 nM.
The like results for `CN(C(=O)Cc1ccc(Cl)c(Cl)c1)C(CN1CCCC1)C(C)(C)C` (stereo unspecified) were, in that order, 2.5 and 11 nM.
The like results for `CC(C)[C@H](CN1CCCC1)N(C)C(=O)Cc1ccc(Cl)c(Cl)c1` were, in that order, 0.015 and 17.1 nM.
For the compound `CN(C(=O)Cc1ccc(Cl)c(Cl)c1)C(CN1CCCC1)c1cccc(N)c1` (stereo unspecified), the Ke in assay [3] stood at 11.3 nM. The Potency ratio in assay [4] came to 24.
